Drawing on ChEMBL document CHEMBL1148414, “Conformer- and alignment-independent model for predicting structurally diverse competitive CYP2C9 inhibitors” (J Med Chem, 2004), this text covers Ki for 2 compounds.

Chains of the proteins cited; added tags and fusions are not shown.
UniProt P11712, whole entry: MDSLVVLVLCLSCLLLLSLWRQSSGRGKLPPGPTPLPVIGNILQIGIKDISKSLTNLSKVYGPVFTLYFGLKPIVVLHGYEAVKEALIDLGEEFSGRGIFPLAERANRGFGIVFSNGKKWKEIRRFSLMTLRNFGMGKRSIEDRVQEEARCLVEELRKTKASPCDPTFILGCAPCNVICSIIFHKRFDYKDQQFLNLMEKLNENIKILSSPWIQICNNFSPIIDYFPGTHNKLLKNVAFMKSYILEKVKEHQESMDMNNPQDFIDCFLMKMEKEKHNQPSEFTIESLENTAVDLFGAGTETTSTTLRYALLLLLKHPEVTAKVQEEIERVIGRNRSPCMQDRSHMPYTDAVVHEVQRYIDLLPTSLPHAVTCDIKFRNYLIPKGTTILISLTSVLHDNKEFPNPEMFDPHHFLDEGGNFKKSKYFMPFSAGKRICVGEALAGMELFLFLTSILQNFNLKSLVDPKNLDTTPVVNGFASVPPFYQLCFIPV

In the assay the target is Cytochrome P450 2C9 (Homo sapiens, UniProt P11712). In words: Binding affinity towards cytochrome P450 2C9. The assay is classed as ADME.

What is called Ki is a dissociation constant, usually derived from enzyme kinetics or from competition with a known ligand. High values mean weaker binding, low ones tighter binding. Take `CCc1nc(N)nc(N)c1-c1ccc(Cl)cc1` [PYRIMETHAMINE]: the Ki was found to be 51.5 µM.
Under `O=c1c(O)c(-c2ccc(O)c(O)c2)oc2cc(O)cc(O)c12` [QUERCETIN] stands 27 µM.
